According to US8664400B2, “Triphenylamine derivatives useful as fluorophores in biology, in particular for two-photon microscopy” (Centre National de la Recherche Scientifique, priority 2006, dated 2014):

Assay: Emission and single-photon absorption properties in glycerol or sodium cacodylate buffer
Assay type: physicochemical
Details: in glycerol, at 474 nm

molar extinction coefficient (ε): 66 000 L/mol·cm
SMILES: C[n+]1ccc(C=Cc2ccc(N(c3ccc(C=Cc4cc[n+](C)cc4)cc3)c3ccc(C=Cc4cc[n+](C)cc4)cc3)cc2)cc1.[I-].[I-].[I-] [TP-3Py, Tris[4-(2-N-methylpyridinium-4-ylvinyl)phenyl]amine iodide]
